Laboratory results as given in patent US9285319B2, “Nucleic acid base analogs with quenching and fluorescent activities and applications thereof” (RIKEN, priority 2010, dated 2016).
Like-named read-outs stand apart in the source and are kept apart here.

Sequences of proteins named here, by UniProt entry; tags and fusion partners are left off. Residues count along the entry.
UniProt P00582, 324-928 D355A/E357A limits assumed: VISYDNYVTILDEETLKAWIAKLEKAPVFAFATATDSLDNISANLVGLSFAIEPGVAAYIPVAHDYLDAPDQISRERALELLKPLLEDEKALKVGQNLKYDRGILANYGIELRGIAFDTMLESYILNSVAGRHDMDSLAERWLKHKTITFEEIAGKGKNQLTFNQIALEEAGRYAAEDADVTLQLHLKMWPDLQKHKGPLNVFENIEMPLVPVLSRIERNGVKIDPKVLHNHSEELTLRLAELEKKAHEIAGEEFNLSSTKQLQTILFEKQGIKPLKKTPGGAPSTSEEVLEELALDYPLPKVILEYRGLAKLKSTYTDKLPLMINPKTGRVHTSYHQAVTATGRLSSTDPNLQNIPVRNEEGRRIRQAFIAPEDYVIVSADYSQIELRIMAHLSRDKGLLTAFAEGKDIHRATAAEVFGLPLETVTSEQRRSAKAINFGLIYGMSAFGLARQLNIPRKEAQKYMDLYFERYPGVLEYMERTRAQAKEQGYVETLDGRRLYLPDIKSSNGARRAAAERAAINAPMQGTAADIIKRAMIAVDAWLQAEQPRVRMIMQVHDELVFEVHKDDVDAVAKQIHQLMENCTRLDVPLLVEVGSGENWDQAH

Target: Klenow fragment not having exonuclease activity (KF exo−) (Escherichia coli, UniProt P00582, D355A/E357A)
Conditions: primer 5′-[…]; for Km / Vmax: 37° C., SD in parentheses

## O=P(O)(O)OP(=O)(O)OP(=O)(O)OC[C@H]1O[C@@H](n2cnc3c(-c4ccc(-c5cccs5)s4)ccnc32)C[C@@H]1O
Template N = A
  Efficiency (Vmax/KM): 1.5 × 10^5 % min^−1 M^−1
  Km: 5 µM
  Vmax: 0.73 (0.1) % min^−1
Template N = C
  Efficiency (Vmax/KM): 1.3 × 10^5 % min^−1 M^−1
  Km: 7.5 µM
  Vmax: 1.0 (0.2) % min^−1
Template N = G
  Efficiency (Vmax/KM): 2.6 × 10^5 % min^−1 M^−1
  Km: 3.6 µM
  Vmax: 0.93 (0.03) % min^−1
Template N = Pn
  Efficiency (Vmax/KM): 1.2 × 10^7 % min^−1 M^−1
  Km: 0.77 µM
  Vmax: 8.9 (3.0) % min^−1
Template N = T
  Efficiency (Vmax/KM): 3.5 × 10^5 % min^−1 M^−1
  Km: 6.2 µM
  Vmax: 2.2 (0.2) % min^−1
